Laboratory results reported in US4150137A, “Pyridylalkyl esters of 2-(p-isobutylphenyl)acetic acid and propionic acids and use” (Hisamitsu Pharmaceutical Co. Inc., priority 1975, dated 1979).

System: male mice of dd-strain
Assay type: in vivo
Settings: death of animals 72 hours following administration
Experimental: Each test compound suspended in 0.5% tragacanth-saline was administered intraperitoneally or orally to male mice of dd-strain(body weight 16-24 g). The lethal dose was estimated from the death of animals 72 hours following administration.

CC(C)Cc1ccc(C(C)C(=O)O)cc1 (stereo not shown) [ibuprofen, 2-(p-isobutylphenyl)propionic acid, reference compound]
acute toxicity, oral (lethal dose): 1000 to 2000 mg/kg
